Experimental data reported in the NIST ThermoML archive (doi:10.1016/j.fluid.2019.02.028).
± gives the expanded uncertainty stated by the source.

Assay: xn = mol fraction of the nth substance listed
Settings: Liquid, Vibrating tube method

CCCCOCCCC [dibutyl ether] + CCCCCCC
mass density [kg/m3]
Settings	x1 = 0.325	x1 = 0.5	x1 = 0.675	x1 = 0.85
298.15 K, 100 kPa	724.4 ± 7	738.6 ± 7	749.5 ± 7	763.8 ± 7
298.15 K, 1000 kPa	725.2 ± 7	739.4 ± 7	750.4 ± 7	764.7 ± 7
298.15 K, 5000 kPa	728.9 ± 7	743.1 ± 7	754 ± 7	768.2 ± 7
298.15 K, 10000 kPa	733.2 ± 7	747.4 ± 7	758.2 ± 7	772.4 ± 7
298.15 K, 15000 kPa	737.3 ± 7	751.4 ± 7	762.3 ± 7	776.4 ± 7
298.15 K, 20000 kPa	741.1 ± 7	755.2 ± 7	766.1 ± 7	780.2 ± 7
298.15 K, 25000 kPa	744.9 ± 7	758.9 ± 7	769.7 ± 7	783.7 ± 7
298.15 K, 30000 kPa	748.4 ± 7	762.4 ± 7	773.2 ± 7	787.3 ± 7
298.15 K, 35000 kPa	751.7 ± 7	765.7 ± 7	776.6 ± 7	790.6 ± 7
298.15 K, 40000 kPa	754.9 ± 7	769 ± 7	779.7 ± 7	793.8 ± 7
298.15 K, 45000 kPa	758.1 ± 7	772.1 ± 7	782.9 ± 7	796.9 ± 7
298.15 K, 50000 kPa	761.1 ± 7	775.1 ± 7	785.9 ± 7	799.8 ± 7
298.15 K, 55000 kPa	764 ± 7	778 ± 7	788.8 ± 7	802.8 ± 7
298.15 K, 60000 kPa	766.8 ± 7	780.8 ± 7	791.6 ± 7	805.6 ± 7
298.15 K, 65000 kPa	769.6 ± 7	783.5 ± 7	794.3 ± 7	808.3 ± 7
298.15 K, 70000 kPa	772.3 ± 7	786.2 ± 7	797 ± 7	811 ± 7
298.15 K, 80000 kPa	777.3 ± 7	791.3 ± 7	802.1 ± 7	816.1 ± 7
298.15 K, 90000 kPa	782.2 ± 7	796.2 ± 7	807 ± 7	821 ± 7
298.15 K, 100000 kPa	786.8 ± 7.1	800.8 ± 7.1	811.6 ± 7	825.5 ± 7
298.15 K, 110000 kPa	791.2 ± 7.1	805.2 ± 7.1	816 ± 7.1	830 ± 7
298.15 K, 120000 kPa	795.3 ± 7.1	809.4 ± 7.1	820.2 ± 7.1	834.2 ± 7.1
298.15 K, 130000 kPa	799.3 ± 7.1	813.4 ± 7.1	824.2 ± 7.1	838.3 ± 7.1
298.15 K, 140000 kPa	803.2 ± 7.1	817.3 ± 7.1	828.2 ± 7.1	842.1 ± 7.1
313.15 K, 100 kPa	711.3 ± 7	725.5 ± 7	736.5 ± 7	750.7 ± 7
313.15 K, 1000 kPa	712.3 ± 7	726.4 ± 7	737.4 ± 7	751.6 ± 7
313.15 K, 5000 kPa	716.4 ± 7	730.5 ± 7	741.4 ± 7	755.6 ± 7
313.15 K, 10000 kPa	721.1 ± 7	735.1 ± 7	746 ± 7	760.1 ± 7
313.15 K, 15000 kPa	725.5 ± 7	739.6 ± 7	750.4 ± 7	764.5 ± 7
313.15 K, 20000 kPa	729.8 ± 7	743.7 ± 7	754.6 ± 7	768.6 ± 7
313.15 K, 25000 kPa	733.6 ± 7	747.5 ± 7	758.3 ± 7	772.3 ± 7
313.15 K, 30000 kPa	737.6 ± 7	751.5 ± 7	762.2 ± 7	776.2 ± 7
313.15 K, 35000 kPa	741.2 ± 7	755.1 ± 7	765.9 ± 7	779.7 ± 7
313.15 K, 40000 kPa	744.5 ± 7	758.4 ± 7	769.2 ± 7	783.1 ± 7
313.15 K, 45000 kPa	747.9 ± 7	761.8 ± 7	772.5 ± 7	786.4 ± 7
313.15 K, 50000 kPa	751.2 ± 7	765 ± 7	775.8 ± 7	789.7 ± 7
313.15 K, 55000 kPa	754.3 ± 7	768.2 ± 7	778.9 ± 7	792.7 ± 7
313.15 K, 60000 kPa	757.3 ± 7	771.1 ± 7	781.9 ± 7	795.7 ± 7
313.15 K, 65000 kPa	760.1 ± 7	774 ± 7	784.7 ± 7	798.6 ± 7
313.15 K, 70000 kPa	762.9 ± 7	776.8 ± 7	787.5 ± 7	801.4 ± 7
313.15 K, 80000 kPa	768.3 ± 7	782.2 ± 7	792.9 ± 7	806.7 ± 7
313.15 K, 90000 kPa	773.4 ± 7.1	787.3 ± 7	798 ± 7	811.9 ± 7
313.15 K, 100000 kPa	778.2 ± 7.1	792.1 ± 7.1	802.8 ± 7.1	816.7 ± 7
313.15 K, 110000 kPa	782.8 ± 7.1	796.7 ± 7.1	807.5 ± 7.1	821.4 ± 7.1
313.15 K, 120000 kPa	787.2 ± 7.1	801.1 ± 7.1	811.9 ± 7.1	825.7 ± 7.1
313.15 K, 130000 kPa	791.5 ± 7.1	805.4 ± 7.1	816.1 ± 7.1	830.1 ± 7.1
313.15 K, 140000 kPa	795.5 ± 7.1	809.4 ± 7.1	820.2 ± 7.1	834.2 ± 7.1
333.15 K, 100 kPa	693.6 ± 7	707.7 ± 7	718.7 ± 7	733 ± 7
333.15 K, 1000 kPa	694.7 ± 7	708.9 ± 7	719.9 ± 7	734 ± 7
333.15 K, 5000 kPa	699.4 ± 7	713.5 ± 7	724.3 ± 7	738.5 ± 7
333.15 K, 10000 kPa	704.8 ± 7	718.8 ± 7	729.6 ± 7	743.6 ± 7
333.15 K, 15000 kPa	709.9 ± 7	723.9 ± 7	734.6 ± 7	748.6 ± 7
333.15 K, 20000 kPa	714.6 ± 7	728.4 ± 7	739.2 ± 7	753.1 ± 7
333.15 K, 25000 kPa	719 ± 7	732.8 ± 7	743.5 ± 7	757.5 ± 7
333.15 K, 30000 kPa	723.2 ± 7	737 ± 7	747.7 ± 7	761.5 ± 7
333.15 K, 35000 kPa	727.2 ± 7	741 ± 7	751.7 ± 7	765.5 ± 7
333.15 K, 40000 kPa	731 ± 7	744.7 ± 7	755.5 ± 7	769.2 ± 7
333.15 K, 45000 kPa	734.6 ± 7	748.3 ± 7	759 ± 7	772.7 ± 7
333.15 K, 50000 kPa	738.1 ± 7	751.8 ± 7	762.5 ± 7	776.2 ± 7
333.15 K, 55000 kPa	741.4 ± 7	755.1 ± 7	765.8 ± 7	779.6 ± 7
333.15 K, 60000 kPa	744.6 ± 7	758.4 ± 7	769 ± 7	782.7 ± 7
333.15 K, 65000 kPa	747.8 ± 7	761.5 ± 7	772.1 ± 7	785.8 ± 7
333.15 K, 70000 kPa	750.7 ± 7	764.5 ± 7	775.1 ± 7	788.8 ± 7
333.15 K, 80000 kPa	756.5 ± 7.1	770.2 ± 7	780.9 ± 7	794.6 ± 7
333.15 K, 90000 kPa	762 ± 7.1	775.7 ± 7.1	786.3 ± 7	800 ± 7
333.15 K, 100000 kPa	767.1 ± 7.1	780.8 ± 7.1	791.4 ± 7.1	805.2 ± 7.1
333.15 K, 110000 kPa	771.9 ± 7.1	785.7 ± 7.1	796.4 ± 7.1	810 ± 7.1
333.15 K, 120000 kPa	776.5 ± 7.1	790.3 ± 7.1	801 ± 7.1	814.7 ± 7.1
333.15 K, 130000 kPa	781 ± 7.1	794.8 ± 7.1	805.5 ± 7.1	819.3 ± 7.1
